Molecular target: Adrenergic receptor alpha-1 (Rattus norvegicus, UniProt P15823+P23944+P43140)
Experiment: in vitro alpha-1 adrenergic receptor binding assay from rats, using RX 821002 as the displaceable ligand
Type: protein assay

Amino acid sequences for entries named in this document (tags omitted). A change or cut given only in a name is not applied to a line headed by its entry.
UniProt P15823: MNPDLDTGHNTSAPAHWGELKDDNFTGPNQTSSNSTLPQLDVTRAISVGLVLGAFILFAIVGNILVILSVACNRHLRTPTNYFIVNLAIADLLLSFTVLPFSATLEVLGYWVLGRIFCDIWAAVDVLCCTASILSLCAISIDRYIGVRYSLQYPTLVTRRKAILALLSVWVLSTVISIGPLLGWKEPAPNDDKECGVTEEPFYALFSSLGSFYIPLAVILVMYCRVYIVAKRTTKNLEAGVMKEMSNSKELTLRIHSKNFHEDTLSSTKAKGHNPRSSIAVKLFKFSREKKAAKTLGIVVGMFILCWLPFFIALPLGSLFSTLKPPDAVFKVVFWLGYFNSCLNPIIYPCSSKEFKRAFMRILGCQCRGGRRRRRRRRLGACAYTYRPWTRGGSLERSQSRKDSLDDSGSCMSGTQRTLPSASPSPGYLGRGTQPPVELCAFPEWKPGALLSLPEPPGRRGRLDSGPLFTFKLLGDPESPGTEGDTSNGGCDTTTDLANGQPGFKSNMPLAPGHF
UniProt P23944: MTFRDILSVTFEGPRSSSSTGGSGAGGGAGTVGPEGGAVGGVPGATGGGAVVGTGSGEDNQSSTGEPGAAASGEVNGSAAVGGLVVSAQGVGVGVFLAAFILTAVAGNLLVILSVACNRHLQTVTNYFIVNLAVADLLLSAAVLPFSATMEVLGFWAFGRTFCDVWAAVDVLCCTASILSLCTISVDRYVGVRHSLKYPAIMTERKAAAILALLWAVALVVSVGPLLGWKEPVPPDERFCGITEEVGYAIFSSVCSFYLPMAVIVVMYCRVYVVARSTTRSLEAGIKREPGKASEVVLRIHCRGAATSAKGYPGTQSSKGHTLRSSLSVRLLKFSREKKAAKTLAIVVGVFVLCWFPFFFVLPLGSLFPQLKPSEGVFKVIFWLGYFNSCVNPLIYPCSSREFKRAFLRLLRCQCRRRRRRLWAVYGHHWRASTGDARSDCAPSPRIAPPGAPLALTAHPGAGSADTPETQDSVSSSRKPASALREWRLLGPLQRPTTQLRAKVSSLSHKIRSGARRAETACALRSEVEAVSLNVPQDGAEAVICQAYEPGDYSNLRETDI
UniProt P43140: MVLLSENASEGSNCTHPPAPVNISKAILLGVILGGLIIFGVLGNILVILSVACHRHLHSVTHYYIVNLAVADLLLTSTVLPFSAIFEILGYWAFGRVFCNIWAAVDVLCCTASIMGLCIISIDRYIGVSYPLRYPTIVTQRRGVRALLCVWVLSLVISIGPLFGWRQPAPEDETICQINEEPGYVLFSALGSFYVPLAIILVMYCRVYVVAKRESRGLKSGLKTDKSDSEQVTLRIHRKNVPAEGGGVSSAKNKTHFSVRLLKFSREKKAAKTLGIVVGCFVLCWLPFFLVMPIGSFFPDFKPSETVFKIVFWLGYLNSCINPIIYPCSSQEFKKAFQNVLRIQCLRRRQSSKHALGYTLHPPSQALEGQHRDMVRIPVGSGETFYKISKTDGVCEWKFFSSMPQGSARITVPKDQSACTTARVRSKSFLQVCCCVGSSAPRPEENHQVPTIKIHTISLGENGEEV

For `Clc1cccc(Cl)c1NC1=NCCN1` [CLONIDINE], the Ki was 116 nM.

Reference: ChEMBL document CHEMBL1133002 (J Med Chem, 2000)
